Assay results reported in PubChem BioAssay AID602261 (Sanford-Burnham Center for Chemical Genomics, 2012).
Only a part is listed here, and it is no random draw. Calls of active or inactive are those of the source.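 The calls were made as follows: active = compounds whose normalised, plate-corrected inhibition of enzyme fluorescence in the single-dose primary screen is 50% or more; inactive = the rest.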

The chains behind the UniProt entries cited, without tags or fusion partners.
UniProt P49327, whole entry: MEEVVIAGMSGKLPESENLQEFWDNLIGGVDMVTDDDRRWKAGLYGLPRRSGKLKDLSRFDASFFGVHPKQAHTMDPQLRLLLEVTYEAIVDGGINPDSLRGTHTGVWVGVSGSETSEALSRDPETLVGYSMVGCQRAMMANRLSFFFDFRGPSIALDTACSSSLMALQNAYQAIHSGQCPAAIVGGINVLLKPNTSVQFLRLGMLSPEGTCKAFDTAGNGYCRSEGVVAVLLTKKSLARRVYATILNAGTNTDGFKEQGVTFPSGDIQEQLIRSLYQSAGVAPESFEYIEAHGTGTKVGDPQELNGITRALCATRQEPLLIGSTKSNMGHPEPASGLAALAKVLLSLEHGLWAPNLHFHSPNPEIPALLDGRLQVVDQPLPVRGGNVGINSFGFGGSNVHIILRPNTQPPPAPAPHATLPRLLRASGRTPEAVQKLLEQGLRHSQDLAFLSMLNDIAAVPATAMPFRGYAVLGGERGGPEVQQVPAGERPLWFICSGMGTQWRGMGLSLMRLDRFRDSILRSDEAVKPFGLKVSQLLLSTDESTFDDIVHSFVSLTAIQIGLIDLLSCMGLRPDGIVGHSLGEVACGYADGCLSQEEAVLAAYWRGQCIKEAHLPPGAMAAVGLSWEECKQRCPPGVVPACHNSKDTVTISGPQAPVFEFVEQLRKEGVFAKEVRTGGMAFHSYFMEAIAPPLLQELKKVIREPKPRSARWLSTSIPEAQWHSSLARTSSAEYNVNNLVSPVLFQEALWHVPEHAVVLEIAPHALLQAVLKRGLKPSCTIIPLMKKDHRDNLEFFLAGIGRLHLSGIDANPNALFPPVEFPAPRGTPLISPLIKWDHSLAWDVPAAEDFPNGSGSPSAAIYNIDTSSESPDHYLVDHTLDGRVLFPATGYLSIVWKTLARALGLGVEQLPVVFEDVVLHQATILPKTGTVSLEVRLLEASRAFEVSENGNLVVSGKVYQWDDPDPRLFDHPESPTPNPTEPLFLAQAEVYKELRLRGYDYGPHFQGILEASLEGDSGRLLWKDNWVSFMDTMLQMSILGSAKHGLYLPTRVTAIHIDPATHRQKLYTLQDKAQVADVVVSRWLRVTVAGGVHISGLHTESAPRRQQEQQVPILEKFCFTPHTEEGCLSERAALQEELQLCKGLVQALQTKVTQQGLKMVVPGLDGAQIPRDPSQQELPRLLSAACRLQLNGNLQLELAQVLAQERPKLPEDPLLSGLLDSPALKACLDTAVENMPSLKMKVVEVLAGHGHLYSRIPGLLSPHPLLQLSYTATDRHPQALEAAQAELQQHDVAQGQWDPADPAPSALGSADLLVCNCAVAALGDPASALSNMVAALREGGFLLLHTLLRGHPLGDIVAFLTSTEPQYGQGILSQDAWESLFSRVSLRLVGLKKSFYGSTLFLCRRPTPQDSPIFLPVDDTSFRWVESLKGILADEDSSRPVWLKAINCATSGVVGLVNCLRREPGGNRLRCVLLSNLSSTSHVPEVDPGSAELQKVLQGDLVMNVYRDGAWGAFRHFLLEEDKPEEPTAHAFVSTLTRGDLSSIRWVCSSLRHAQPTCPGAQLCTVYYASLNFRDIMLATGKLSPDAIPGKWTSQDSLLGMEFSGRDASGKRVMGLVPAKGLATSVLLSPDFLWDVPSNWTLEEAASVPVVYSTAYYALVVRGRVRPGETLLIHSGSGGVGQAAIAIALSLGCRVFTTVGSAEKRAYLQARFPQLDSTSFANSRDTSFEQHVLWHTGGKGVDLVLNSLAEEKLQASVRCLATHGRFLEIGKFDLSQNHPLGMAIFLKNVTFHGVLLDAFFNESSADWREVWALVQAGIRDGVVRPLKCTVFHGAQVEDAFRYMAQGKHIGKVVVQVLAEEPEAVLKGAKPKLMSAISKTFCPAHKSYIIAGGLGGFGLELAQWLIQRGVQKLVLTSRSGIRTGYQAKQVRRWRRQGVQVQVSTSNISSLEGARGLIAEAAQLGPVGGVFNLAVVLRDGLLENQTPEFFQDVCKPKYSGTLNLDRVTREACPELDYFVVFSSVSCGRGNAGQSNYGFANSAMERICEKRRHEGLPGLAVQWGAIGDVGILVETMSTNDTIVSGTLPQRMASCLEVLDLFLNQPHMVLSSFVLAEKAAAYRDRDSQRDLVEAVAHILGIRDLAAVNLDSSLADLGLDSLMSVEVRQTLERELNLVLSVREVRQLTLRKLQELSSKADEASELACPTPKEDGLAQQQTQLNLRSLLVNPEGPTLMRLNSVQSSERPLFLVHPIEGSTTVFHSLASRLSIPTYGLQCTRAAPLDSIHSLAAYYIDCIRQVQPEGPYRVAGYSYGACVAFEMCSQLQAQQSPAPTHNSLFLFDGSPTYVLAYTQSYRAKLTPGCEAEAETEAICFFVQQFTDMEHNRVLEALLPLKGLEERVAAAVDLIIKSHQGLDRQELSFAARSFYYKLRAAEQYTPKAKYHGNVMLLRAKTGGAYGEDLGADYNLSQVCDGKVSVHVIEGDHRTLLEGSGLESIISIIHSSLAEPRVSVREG

Target: Fatty acid synthase (Homo sapiens) (UniProt P49327)
Experiment: inhibition of human FAS-TE enzyme activity – biochemical, fluorescence intensity, uHTS, primary screen (AID 602261);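 also: 0% = DMSO with enzyme and 100% = substrate without enzyme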
Details: recombinant FAS-TE, OMFH fluorogenic substrate, fluorescence endpoint; at 15 µM; hits give high values

Row | SMILES | inhibition
1 | COc1cccc(C(c2nnnn2C2CCCC2)N2CCC(n3c(=O)[nH]c4ccccc43)CC2)c1OC (stereo not drawn) | inactive: 11.2%
2 | COc1cc(OC)cc(C(=O)NCC2(N3CCOCC3)CCCCC2)c1 | inactive: -4.1%
3 | COc1cccc(C(=O)N(c2cc(C)cc(C)c2)C2CCN(C(=O)OC(C)(C)C)CC2)c1 | inactive: 21%
4 | CCC(CO)(C(=O)OC1CN2CCC1CC2)c1ccccc1 (stereo not drawn) | inactive: -13.6%
5 | CN1CCC(Nc2ccc(Cl)cc2)CC1 | inactive: -5.5%
6 | CCOc1ncccc1C(=O)NCC1(N2CCOCC2)CCCCC1 | inactive: -6.6%
7 | CN1CCC(Nc2ccc(F)c(Cl)c2)CC1 | inactive: -1%
8 | CC(C)(C)OC(=O)N1CCC(Nc2ccccc2)CC1 | inactive: -7%
9 | O=C(O)C1(Nc2ccccc2)CCN(Cc2ccccc2)CC1 | inactive: -2.1%
10 | NN(c1ccccc1)C1CCN(CCc2ccccc2)CC1 | inactive: -6%
11 | CCCOc1ccc(C(=O)NCC2(N(C)C)CCCCC2)cc1 | inactive: -5.6%
12 | O=c1[nH]c2ccccc2n1C1CCN(C(c2cc3ccccc3o2)c2nnnn2C2CCCC2)CC1 (stereo not drawn) | active: 58.1%
13 | Cc1ccccc1NC1(C#N)CCN(Cc2ccccc2)CC1 | inactive: 2.7%
14 | CC(C)(C)n1nnnc1C(c1ccnc2ccccc12)N1CCC(n2c(=O)[nH]c3ccccc32)CC1 (stereo not drawn) | inactive: 4.4%
15 | CCN1CCC(Nc2cccc(F)c2)CC1 | inactive: -7%
16 | COc1ccc(C(c2nnnn2C2CCCCC2)N2CCC(n3c(=O)[nH]c4ccccc43)CC2)cc1 (stereo not drawn) | inactive: 19.9%
17 | O=C(NCC1(N2CCCCC2)CCCCC1)c1ccco1 | inactive: -10.2%
18 | Cn1c(=O)[nH]cc(N(CCCl)CCCl)c1=O | inactive: -7.3%
19 | CN(C)c1ccc(C(=O)NCC2(N3CCCCC3)CCCCC2)cc1 | inactive: -3.3%
20 | CC(=O)N(c1ccccc1)C1CCNCC1 | inactive: -11.1%
21 | COc1cccc(C(c2nnnn2C2CCCCC2)N2CCC(n3c(=O)[nH]c4ccccc43)CC2)c1OC (stereo not drawn) | inactive: 28.6%
22 | CCC(c1nnnn1C1CCCCC1)N1CCC(n2c(=O)[nH]c3ccccc32)CC1 (stereo not drawn) | inactive: -1.6%

Row | SMILES | inhibition
23 | O=c1[nH]c2ccccc2n1C1CCN(C(c2ccnc3ccccc23)c2nnnn2C2CCCCC2)CC1 (stereo not drawn) | inactive: 21%
24 | COc1cc(OC)cc(C(=O)NCC2(N3CCCCC3)CCCCC2)c1 | inactive: -6.9%
25 | Cc1ccc(C(=O)NCC2(N3CCCCC3)CCCCC2)o1 | inactive: -3.5%
26 | Fc1ccccc1NC1CCN(Cc2ccccc2)CC1 | inactive: -5.5%
27 | Cc1ccc(NC2(C#N)CCN(Cc3ccccc3)CC2)cc1 | inactive: 3%
28 | CN(C)C1(CNC(=O)c2cccc(C#N)c2)CCCCC1 | inactive: -4.3%
29 | c1ccc(CN2CCC(Nc3ccccc3)CC2)cc1 | inactive: -6.1%
30 | Cc1cc(N(CCCl)CCCl)ccc1C=O | inactive: 3.1%
31 | O=c1[nH]c2ccccc2n1C1CCN(C(c2ccccc2)c2nnnn2C2CCCC2)CC1 (stereo not drawn) | inactive: 19.5%
32 | CCCN1CCC(Nc2cc(OC)cc(OC)c2)CC1 | inactive: -8.1%
33 | CC(C)(C)n1nnnc1C(c1cccc2ccccc12)N1CCC(n2c(=O)[nH]c3ccccc32)CC1 (stereo not drawn) | active: 81.3%
34 | N#Cc1ccc(C(=O)NCC2(N3CCCCC3)CCCCC2)cc1 | inactive: -3%
35 | CC(C)(C)OC(=O)N1CCC(N(C(=O)c2ccccc2)c2ccc(Cl)cc2)CC1 | inactive: 13.5%
36 | COc1cccc(C(c2nnnn2C(C)(C)C)N2CCC(n3c(=O)[nH]c4ccccc43)CC2)c1OC (stereo not drawn) | inactive: 14.2%
37 | CCOC(=O)N1CCC(Nc2ccc(C)cc2)CC1 | inactive: -0.9%
38 | N/C(=N\O)c1c(N)no[n+]1[O-] | inactive: -6%
39 | O=C(OC1CN2CCC1CC2)C1c2ccccc2C=Cc2ccccc21 (stereo not drawn) | inactive: -9.7%
40 | O=c1[nH]c2ccccc2n1C1CCN(C(c2cccs2)c2nnnn2C2CCCC2)CC1 (stereo not drawn) | inactive: 2.6%
41 | CCCCn1nnnc1C(c1cccc(OC)c1OC)N1CCC(n2c(=O)[nH]c3ccccc32)CC1 (stereo not drawn) | inactive: 9.3%
42 | CCCCn1nnnc1C(c1ccccc1)N1CCC(n2c(=O)[nH]c3ccccc32)CC1 (stereo not drawn) | inactive: 9%
43 | COc1cc(C(=O)NCC2(N3CCOCC3)CCCCC2)cc(OC)c1C | inactive: 12.9%
44 | O=C(NCC1(N2CCOCC2)CCCCC1)c1cc(Br)ccc1Cl | inactive: 7.1%

Row | SMILES | inhibition
45 | O=c1[nH]c2ccccc2n1C1CCN(C(c2cccs2)c2nnnn2C2CCCCC2)CC1 (stereo not drawn) | inactive: 19.7%
46 | COc1ccc(C(=O)NCC2(N3CCOCC3)CCCCC2)cc1OC | inactive: -4.9%
47 | O=c1[nH]c2ccccc2n1C1CCN(C(c2ccnc3ccccc23)c2nnnn2C2CCCC2)CC1 (stereo not drawn) | inactive: 10.3%
48 | O=C(NCC1(N2CCCCC2)CCCCC1)c1cncc(Br)c1 | inactive: -7.5%
49 | CN1CCC(Nc2cccc(F)c2)CC1 | inactive: -10.6%
50 | COc1ccc(C(c2nnnn2C2CCCC2)N2CCC(n3c(=O)[nH]c4ccccc43)CC2)cc1 (stereo not drawn) | inactive: 0.4%
51 | Cc1ccc(C(=O)NCC2(N(C)C)CCCCC2)o1 | inactive: -4.6%
52 | CCCOc1ccc(C(=O)NCC2(N(C)C)CCCCC2)cc1OC | inactive: -5.6%
53 | CC(C)c1ccc(NC2CCN(C(=O)OC(C)(C)C)CC2)cc1 | inactive: 9.3%
54 | CCCCn1nnnc1C(c1ccccc1OC(F)(F)F)N1CCC(n2c(=O)[nH]c3ccccc32)CC1 (stereo not drawn) | inactive: 19.4%
55 | COc1ccc(CN(CCCl)CCCl)cc1Cl | inactive: 0.4%
56 | CN(C)c1cccc(C(=O)NCC2(N3CCCCC3)CCCCC2)c1 | inactive: -4.4%
57 | COc1cc(OC)c(C(=O)NCC2(N(C)C)CCCCC2)cc1OC | inactive: -3.5%
58 | O=C(NCC1(N2CCOCC2)CCCCC1)c1cc(F)c(F)cc1Cl | inactive: 1.7%
59 | CCC(c1nnnn1C(C)(C)C)N1CCC(n2c(=O)[nH]c3ccccc32)CC1 (stereo not drawn) | inactive: 0.7%
60 | CCCCn1nnnc1C(c1ccnc2ccccc12)N1CCC(n2c(=O)[nH]c3ccccc32)CC1 (stereo not drawn) | inactive: -1.1%
61 | O=C(NCC1(N2CCCCC2)CCCCC1)c1cccc(C(F)(F)F)c1 | inactive: 0.3%
62 | COc1cc(C(=O)NCC2(N3CCCCC3)CCCCC2)ccc1OC(F)F | inactive: -2.8%
63 | O=C(NCC1(N2CCOCC2)CCCCC1)c1cc(=O)[nH]c2ccccc12 | inactive: -10.4%
64 | CCCCn1nnnc1C(c1cccc2ccccc12)N1CCC(n2c(=O)[nH]c3ccccc32)CC1 (stereo not drawn) | active: 67.2%
65 | CN1CCN(CCOC(=O)C(O)(c2ccccc2)c2ccccc2)CC1 | inactive: -10%
66 | CC(C)c1ccc(C(=O)NCC2(N3CCOCC3)CCCCC2)cc1 | inactive: 1.5%

Row | SMILES | inhibition
67 | COc1ccc(NC2CCN(C(=O)OC(C)(C)C)CC2)cc1 | inactive: -5.4%
68 | CC(C)(C)n1nnnc1C(c1ccccc1OC(F)(F)F)N1CCC(n2c(=O)[nH]c3ccccc32)CC1 (stereo not drawn) | inactive: 26.4%
69 | O=C(NCC1(N2CCCCC2)CCCCC1)c1ccc(OC(F)F)cc1 | inactive: -8.8%
70 | CCN1CCC(Nc2ccc(Cl)cc2)CC1 | inactive: -1.6%
71 | N#CC1(Nc2ccccc2)CCN(CCc2ccccc2)CC1 | inactive: 0.8%
72 | O=c1[nH]c2ccccc2n1C1CCN(C(c2ccccc2OC(F)(F)F)c2nnnn2C2CCCC2)CC1 (stereo not drawn) | inactive: 20.1%
73 | CSc1ccc(C(=O)NCC2(N3CCOCC3)CCCCC2)cc1 | inactive: -1.7%
74 | O=C(NCC1(N2CCCCC2)CCCCC1)c1cccc([N+](=O)[O-])c1 | inactive: -1.2%
75 | O=c1[nH]c2ccccc2n1C1CCN(C(c2ccccc2)c2nnnn2C2CCCCC2)CC1 (stereo not drawn) | inactive: 34.3%
76 | COc1cc(C(=O)NCC2(N(C)C)CCCCC2)ccc1OC(F)F | inactive: -7.5%
77 | CCOC(=O)N1CCC(Nc2cccc(C)c2)CC1 | inactive: -3.3%
78 | O=c1[nH]c2ccccc2n1C1CCN(C(c2cccc3ccccc23)c2nnnn2C2CCCC2)CC1 (stereo not drawn) | active: 71.7%
79 | CC(C)(C)n1nnnc1C(c1ccccc1)N1CCC(n2c(=O)[nH]c3ccccc32)CC1 (stereo not drawn) | inactive: 5.8%
80 | O=C1CCN(Cc2ccccc2)CC1 | inactive: -1.9%
81 | CCOc1ccc(C)cc1CN(CCCl)CCCl | inactive: -1%
82 | O=C(NCC1(N2CCCCC2)CCCCC1)c1ccc(F)cc1 | inactive: -1.9%
83 | O=P1(N(CCCl)CCCl)SCCCS1 | inactive: -4.4%
84 | CCCCn1nnnc1C(c1cc2ccccc2o1)N1CCC(n2c(=O)[nH]c3ccccc32)CC1 (stereo not drawn) | inactive: 36.3%
85 | CCCCOc1ccc(C(=O)NCC2(N3CCOCC3)CCCCC2)cc1 | inactive: 6.2%
86 | COc1ccc(NC2CCN(CCc3ccccc3)CC2)c(OC)c1 | inactive: -10.6%
87 | CCOC(=O)N1CCC(Nc2ccc(F)cc2)CC1 | inactive: -2.7%
88 | O=c1[nH]c2ccccc2n1C1CCN(C(c2ccccc2OC(F)(F)F)c2nnnn2C2CCCCC2)CC1 (stereo not drawn) | inactive: 29%

Row | SMILES | inhibition
89 | O=C(NCC1(N2CCCCC2)CCCCC1)c1ccc(Cl)nc1 | inactive: -5.9%
90 | Cc1cc(C)cc(N(C(=O)c2ccccc2)C2CCN(C(=O)OC(C)(C)C)CC2)c1 | inactive: 14.3%
91 | O=C(NCC1(N2CCOCC2)CCCCC1)c1cc2ccccc2o1 | inactive: -1.3%
92 | O=C(OC1CN2CCC1CC2)C1c2ccccc2Oc2ccccc21 (stereo not drawn) | inactive: -4.3%
93 | O=c1[nH]c2ccccc2n1C1CCN(C(c2cc3ccccc3o2)c2nnnn2C2CCCCC2)CC1 (stereo not drawn) | active: 69.4%
94 | N#CC1(Nc2ccccc2)CCN(Cc2ccccc2)CC1 | inactive: -0.1%
95 | O=C(NCC1(N2CCCCC2)CCCCC1)c1ccc(Cl)s1 | inactive: -3.7%
96 | COc1ccc(Cl)cc1C(=O)NCC1(N2CCOCC2)CCCCC1 | inactive: 14.5%
97 | CCOC(=O)N1CCC(Nc2ccc(OC)cc2)CC1 | inactive: -9.9%
98 | CCCCn1nnnc1C(c1ccc(OC)cc1)N1CCC(n2c(=O)[nH]c3ccccc32)CC1 (stereo not drawn) | inactive: -8.7%
99 | COc1ccc(C(=O)NCC2(N3CCCCC3)CCCCC2)cc1 | inactive: -3.5%
100 | CCC(c1nnnn1C1CCCC1)N1CCC(n2c(=O)[nH]c3ccccc32)CC1 (stereo not drawn) | inactive: -2.7%
101 | CC(C)(C)OC(=O)N1CCC(N(C(=O)c2ccccc2)c2ccc(F)cc2)CC1 | inactive: -0.4%
102 | COc1ccc(C(=O)NCC2(N3CCCCC3)CCCCC2)c(OC)c1OC | inactive: -3%
103 | O=C(NCC1(N2CCCCC2)CCCCC1)c1ccc(=O)[nH]c1 | inactive: -6.7%
104 | CCCCn1nnnc1C(c1cccs1)N1CCC(n2c(=O)[nH]c3ccccc32)CC1 (stereo not drawn) | inactive: 4.2%
105 | O=C(NCC1(N2CCCCC2)CCCCC1)c1cccs1 | inactive: -2.5%
106 | CCCCn1nnnc1C(CC)N1CCC(n2c(=O)[nH]c3ccccc32)CC1 (stereo not drawn) | inactive: -7.8%
107 | CSc1ccccc1C(=O)NCC1(N2CCCCC2)CCCCC1 | inactive: -0.3%
108 | Cc1cccc(NC2(C#N)CCN(Cc3ccccc3)CC2)c1 | inactive: 7.5%
